Values quoted from earlier work, collected in patent US20140100282A1, “INTRANASAL ADMINISTRATION OF PHARMACEUTICAL AGENTS FOR TREATMENT OF NEUROLOGICAL DISEASES” (priority 2012, published 2014).

Settings: octanol/water partitioning

LogD: 0.44
Substance: metformin laurate
